Results: US9433687B2, “Anti-Notch3 antibodies and antibody-drug conjugates” (Pfizer Inc., priority 2012, dated 2016)

What was measured:
[1] = system: MDA-MB-468 breast xenografts; test: MDA-MB-468 breast xenograft model; type: in vivo, mouse
Description: Similar in vivo experiments were performed with the MDA-MB-468 breast cancer cell line as described above. MDA-MB-468 cells are classified as a triple-negative breast cancer (TNBC) basal-like subtype since they lack expression of the estrogen receptor, progesterone receptor and human epidermal growth factor receptor 2 (HER2) (Lehmann, B D, et al, J Clin Invest. 2011; 121(7):2750-2767). To generate xenografts, female SCID Hairless Outbred (SHO) mice were orthotopically implanted with 10×10^6 MDA-MB-468 cells containing 50% Matrigel (BD Biosciences) in the mammary fat pad. […] FIGS. 13A and 13B show graphs of the data from Table 23 of anti-Notch3 ADCs with vc0101 linker-payloads compared to control huNeg-8.8 ADCs and PBS vehicle. FIGS. 14A and 14B show graphs of the data from Table 24 of the anti-Notch3 ADCs with vc6780 linker-payloads compared to control huNeg-8.8 ADC and PBS vehicle.
The MDA-MB-468 breast cancer model was also dosed intravenously Q4d×4 with PBS vehicle, rat-human chimeric anti-Notch3 ADCs and control huNeg-8.8 ADCs, at a dose of 5 mg/kg as provided in FIGS. 16B and 16C.

HCC2429 (lung cancer) = test: In vitro cytotoxicity (MTS), HCC2429; type: cell-based, human; details: Table 14; two individual repeats; LP = lacked potency
Description: The effects of anti-Notch3 ADCs were assessed on 1) cell lines endogenously expressing Notch3 protein: HCC2429 (lung cancer), OVCAR3 (ovarian cancer) and MDA-MB-468 (breast cancer), 2) cell lines engineered to over-express full length human Notch3 protein: MDA-MB-468/hNotch3 and U2OS/hNotch3, and 3) a negative control cell line (SW900) using an MTS cellular viability indicator (Promega, Madison, Wis.). These cell lines were cultured with increasing concentrations of anti-Notch3 ADCs comprising rat-human chimeric anti-Notch3 antibodies, ch28 and ch75, and humanized anti-Notch3 antibodies, hu28 and hu75, conjugated to various linker-payload combinations of the present invention. As a specificity control for the anti-Notch3-ADCs, non-targeted control-ADCs (huNeg8.8-ADCs or ch2H6-ADCs) were also tested on the same cell lines. After four days, viability of each culture was assessed. IC50 values were calculated by logistic non-linear regression, model #203 with XL fit v4.2 (IDBS, Guildford, Surry, UK) and presented as ng Ab/mL. […]
This process generated the anti-Notch3 cysteine mutant ADCs: hu28-(L443C)-vc0101 and hu28-(L443C/κK183C)-vc0101. The activity of the anti-Notch3 cysteine mutant ADCs were assessed on cell lines endogenously expressing Notch3 protein: HCC2429 (lung cancer) and OVCAR3 (ovarian cancer) using an MTS cellular viability indicator as described in previous Examples.

B1: hu75-vc0101: hu75 conjugated to vc0101 linker-payload (conjugate)
heavy: EVQLVESGGGLVQPGGSLRLSCAASGYAFTDYWMTWVRQAPGKGLEWVAEISPNSGGTNFNEKFKGRFTISVDNAKNSLYLQMNSLRAEDTAVYYCARGEIRYNWFAYWGQGTLVTVSSASTKGPSVFPLAPSSKSTSGGTAALGCLVKDYFPEPVTVSWNSGALTSGVHTFPAVLQSSGLYSLSSVVTVPSSSLGTQTYICNVNHKPSNTKVDKKV[letters of human IgG1 Fc omitted]
light: DIQMTQSPSSLSASVGDRVTITCKASQNVGNNIAWYQQKPGKAPKLLIYYASNRYTGVPSRFSGSGYGTDFTLTISSLQPEDFATYYCQRLYNSPFTFGGGTKVEIKRTVAAPSVFIFPPSDEQLKSGTASVVCLLNNFYPREAKVQWKVDNALQSGNSQESVTEQDSKDSTYSLSSTLTLSKADYEKHKVYACEVTHQGLSSPVTKSFNRGEC
- tumor volume (mm^3 ± SEM) ([1]; Table 23, 0.3 mg/kg i.v. Q4d×4, DAY 0): 348 mm^3
- tumor volume (mm^3 ± SEM) ([1]; Table 23, 0.3 mg/kg i.v. Q4d×4, DAY 4): 439 mm^3
- tumor volume (mm^3 ± SEM) ([1]; Table 23, 0.3 mg/kg i.v. Q4d×4, DAY 7): 435 mm^3
- tumor volume (mm^3 ± SEM) ([1]; Table 23, 0.3 mg/kg i.v. Q4d×4, DAY 11): 504 mm^3
- tumor volume (mm^3 ± SEM) ([1]; Table 23, 0.3 mg/kg i.v. Q4d×4, DAY 14): 507 mm^3
- tumor volume (mm^3 ± SEM) ([1]; Table 23, 0.3 mg/kg i.v. Q4d×4, DAY 18): 587 mm^3
- tumor volume (mm^3 ± SEM) ([1]; Table 23, 0.3 mg/kg i.v. Q4d×4, DAY 21): 590 mm^3
- tumor volume (mm^3 ± SEM) ([1]; Table 23, 0.3 mg/kg i.v. Q4d×4, DAY 26): 652 mm^3
- tumor volume (mm^3 ± SEM) ([1]; Table 23, 0.3 mg/kg i.v. Q4d×4, DAY 29): 675 mm^3
- tumor volume (mm^3 ± SEM) ([1]; Table 23, 0.3 mg/kg i.v. Q4d×4, DAY 32): 738 mm^3
- tumor volume (mm^3 ± SEM) ([1]; Table 23, 0.3 mg/kg i.v. Q4d×4, DAY 35): 821 mm^3
- tumor volume (mm^3 ± SEM) ([1]; Table 23, 0.3 mg/kg i.v. Q4d×4, DAY 39): 864 mm^3
- tumor volume (mm^3 ± SEM) ([1]; Table 23, 0.3 mg/kg i.v. Q4d×4, DAY 42): 997 mm^3
- tumor volume (mm^3 ± SEM) ([1]; Table 23, 1 mg/kg i.v. Q4d×4, DAY 0): 347 mm^3
- tumor volume (mm^3 ± SEM) ([1]; Table 23, 1 mg/kg i.v. Q4d×4, DAY 4): 410 mm^3
- tumor volume (mm^3 ± SEM) ([1]; Table 23, 1 mg/kg i.v. Q4d×4, DAY 7): 383 mm^3
- tumor volume (mm^3 ± SEM) ([1]; Table 23, 1 mg/kg i.v. Q4d×4, DAY 11): 373 mm^3
- tumor volume (mm^3 ± SEM) ([1]; Table 23, 1 mg/kg i.v. Q4d×4, DAY 14): 350 mm^3
- tumor volume (mm^3 ± SEM) ([1]; Table 23, 1 mg/kg i.v. Q4d×4, DAY 18): 296 mm^3
- tumor volume (mm^3 ± SEM) ([1]; Table 23, 1 mg/kg i.v. Q4d×4, DAY 21): 260 mm^3
- tumor volume (mm^3 ± SEM) ([1]; Table 23, 1 mg/kg i.v. Q4d×4, DAY 26): 267 mm^3
- tumor volume (mm^3 ± SEM) ([1]; Table 23, 1 mg/kg i.v. Q4d×4, DAY 29): 261 mm^3
- tumor volume (mm^3 ± SEM) ([1]; Table 23, 1 mg/kg i.v. Q4d×4, DAY 32): 264 mm^3
- tumor volume (mm^3 ± SEM) ([1]; Table 23, 1 mg/kg i.v. Q4d×4, DAY 35): 326 mm^3
- tumor volume (mm^3 ± SEM) ([1]; Table 23, 1 mg/kg i.v. Q4d×4, DAY 39): 324 mm^3
- tumor volume (mm^3 ± SEM) ([1]; Table 23, 1 mg/kg i.v. Q4d×4, DAY 42): 381 mm^3
- tumor volume (mm^3 ± SEM) ([1]; Table 23, 1 mg/kg i.v. Q4d×4, DAY 47): 442 mm^3
- tumor volume (mm^3 ± SEM) ([1]; Table 23, 1 mg/kg i.v. Q4d×4, DAY 50): 484 mm^3
- tumor volume (mm^3 ± SEM) ([1]; Table 23, 1 mg/kg i.v. Q4d×4, DAY 53): 452 mm^3
- tumor volume (mm^3 ± SEM) ([1]; Table 23, 1 mg/kg i.v. Q4d×4, DAY 56): 535 mm^3
- tumor volume (mm^3 ± SEM) ([1]; Table 23, 1 mg/kg i.v. Q4d×4, DAY 60): 603 mm^3
- tumor volume (mm^3 ± SEM) ([1]; Table 23, 3 mg/kg i.v. Q4d×4, DAY 0): 347 mm^3
- tumor volume (mm^3 ± SEM) ([1]; Table 23, 3 mg/kg i.v. Q4d×4, DAY 4): 444 mm^3
- tumor volume (mm^3 ± SEM) ([1]; Table 23, 3 mg/kg i.v. Q4d×4, DAY 7): 338 mm^3
- tumor volume (mm^3 ± SEM) ([1]; Table 23, 3 mg/kg i.v. Q4d×4, DAY 11): 277 mm^3
- tumor volume (mm^3 ± SEM) ([1]; Table 23, 3 mg/kg i.v. Q4d×4, DAY 14): 181 mm^3
- tumor volume (mm^3 ± SEM) ([1]; Table 23, 3 mg/kg i.v. Q4d×4, DAY 18): 90 mm^3
- tumor volume (mm^3 ± SEM) ([1]; Table 23, 3 mg/kg i.v. Q4d×4, DAY 21): 60 mm^3
- tumor volume (mm^3 ± SEM) ([1]; Table 23, 3 mg/kg i.v. Q4d×4, DAY 26): 16 mm^3
- tumor volume (mm^3 ± SEM) ([1]; Table 23, 3 mg/kg i.v. Q4d×4, DAY 29): 8 mm^3
- tumor volume (mm^3 ± SEM) ([1]; Table 23, 3 mg/kg i.v. Q4d×4, DAY 32): 7 mm^3
- tumor volume (mm^3 ± SEM) ([1]; Table 23, 3 mg/kg i.v. Q4d×4, DAY 35): 0 mm^3
- tumor volume (mm^3 ± SEM) ([1]; Table 23, 3 mg/kg i.v. Q4d×4, DAY 39): 0 mm^3
- tumor volume (mm^3 ± SEM) ([1]; Table 23, 3 mg/kg i.v. Q4d×4, DAY 42): 0 mm^3
- tumor volume (mm^3 ± SEM) ([1]; Table 23, 3 mg/kg i.v. Q4d×4, DAY 47): 0 mm^3
- tumor volume (mm^3 ± SEM) ([1]; Table 23, 3 mg/kg i.v. Q4d×4, DAY 50): 0 mm^3
- tumor volume (mm^3 ± SEM) ([1]; Table 23, 3 mg/kg i.v. Q4d×4, DAY 53): 0 mm^3
- tumor volume (mm^3 ± SEM) ([1]; Table 23, 3 mg/kg i.v. Q4d×4, DAY 56): 0 mm^3
- tumor volume (mm^3 ± SEM) ([1]; Table 23, 3 mg/kg i.v. Q4d×4, DAY 60): 0 mm^3
- tumor volume (mm^3 ± SEM) ([1]; Table 23, 3 mg/kg i.v. Q4d×4, DAY 63): 0 mm^3
- tumor volume (mm^3 ± SEM) ([1]; Table 23, 3 mg/kg i.v. Q4d×4, DAY 67): 0 mm^3
- tumor volume (mm^3 ± SEM) ([1]; Table 23, 3 mg/kg i.v. Q4d×4, DAY 70): 0 mm^3
- tumor volume (mm^3 ± SEM) ([1]; Table 23, 3 mg/kg i.v. Q4d×4, DAY 76): 0 mm^3
- tumor volume (mm^3 ± SEM) ([1]; Table 23, 3 mg/kg i.v. Q4d×4, DAY 83): 0 mm^3
- tumor volume (mm^3 ± SEM) ([1]; Table 23, 3 mg/kg i.v. Q4d×4, DAY 90): 0 mm^3
- tumor volume (mm^3 ± SEM) ([1]; Table 23, 3 mg/kg i.v. Q4d×4, DAY 97): 0 mm^3
- tumor volume (mm^3 ± SEM) ([1]; Table 23, 3 mg/kg i.v. Q4d×4, DAY 103): 0 mm^3
- tumor volume (mm^3 ± SEM) ([1]; Table 23, 3 mg/kg i.v. Q4d×4, DAY 110): 0 mm^3
- tumor volume (mm^3 ± SEM) ([1]; Table 23, 3 mg/kg i.v. Q4d×4, DAY 118): 0 mm^3
- tumor volume (mm^3 ± SEM) ([1]; Table 23, 3 mg/kg i.v. Q4d×4, DAY 125): 0 mm^3
- IC50 (ng Ab/mL), HCC2429 (HCC2429 (lung cancer)): 611 ng Ab/mL and 3295 ng Ab/mL

Where “and” joins values, the source holds several entries; their conditions need not be identical. Identical values can stand only once.
